Literature values, collected in article PMC12039075 (Structure (London, England : 1993), 2022).

Test system: human μ-opioid receptor (MOR)

For `CN1CC[C@]23c4c5ccc(O)c4O[C@H]2[C@@H](O)C=C[C@H]3[C@H]1C5` [morphine], the “binding to MOR” value is listed as ~ 2.5 nM.
